Results: ChEMBL document CHEMBL2069201, “N-Benzoyl anthranilic acid derivatives as selective inhibitors of aldo-keto reductase AKR1C3” (Bioorg Med Chem Lett, 2012)

Molecular target: T1, Aldo-keto reductase family 1 member C4 (Homo sapiens, UniProt P17516)
T1 sequence (P17516 whole entry): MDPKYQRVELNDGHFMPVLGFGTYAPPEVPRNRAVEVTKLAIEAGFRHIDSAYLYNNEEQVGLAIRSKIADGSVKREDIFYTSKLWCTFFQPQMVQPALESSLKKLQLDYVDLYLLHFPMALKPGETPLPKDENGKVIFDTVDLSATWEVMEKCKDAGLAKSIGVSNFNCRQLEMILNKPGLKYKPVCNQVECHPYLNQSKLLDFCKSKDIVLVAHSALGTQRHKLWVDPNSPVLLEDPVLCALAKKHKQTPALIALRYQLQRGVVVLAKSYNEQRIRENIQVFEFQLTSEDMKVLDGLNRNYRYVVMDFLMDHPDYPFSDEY
Test: Inhibition of recombinant AKR1C4 using S-tetralol as substrate by fluorimetry
Outline: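 Continuous NADP+-dependent oxidation of S-tetralol, read as NADPH fluorescence at 340/460 nm. Buffer was 100 mM phosphate pH 7.0 with 200 µM NADP+ and 4% DMSO. […] Enzyme was 111, 86, 95 and 184 nM respectively. Initial velocities were fitted to give IC50. Mean of two independent experiments.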

O=C(Nc1ccc([N+](=O)[O-])cc1C(=O)O)c1cccc(O)c1
IC50: 32.3 µM
